Consider 15 compounds from PubChem BioAssay (NCI).

Values joined by “and” are separate entries in the source; they are usually repeats but may differ in a detail not shown here. Equal values may be shown once. Only a part is listed here, and it is no random draw.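 The test compound was applied at a single concentration to cells in 96-well plates for 48 hours, and percent growth was recorded.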 Active and inactive are the calls of the source. Rule for the calls: active = growth percent below 10; inactive = the rest.

This experiment concerns MDA-MB-468 breast. Briefly: NCI-60 one-dose screen, 48 h (100 = growth as untreated, 0 = no growth, -100 = all killed). The following applies: 10 µM.
For the compound `O=[N+]([O-])c1cccc([N+](=O)[O-])c1O`, the growth is inactive: 116%. Then `O=[N+]([O-])OCCOc1ccc([N+](=O)[O-])cc1[N+](=O)[O-]`, with inactive: 99.8%; and `CC(C)N1CCN(CCOC(=O)C(O)(c2ccccc2)c2ccccc2)CC1`, with inactive: 108%. For the compound `CC(C)N(CCCl)C(C)C`, the growth is inactive: 103%. Then `CP(=O)(OCCCCl)N(CCCl)CCCl` (stereo not given), with inactive: 93.6%.

Regarding `O=C(Cl)c1c([N+](=O)[O-])cc([N+](=O)[O-])cc1[N+](=O)[O-]`, the growth is active: -68.2%.

As to `Nc1cc([N+](=O)[O-])cc([N+](=O)[O-])c1O`, the growth was inactive: 123% and inactive: 96%. The value for `O=[N+]([O-])c1ccc(OP2(=O)COCCO2)cc1` (stereo not given) was inactive: 104%. `O=C(O)C1(O)c2ccccc2-c2ccccc21`: the growth was inactive: 99.3% and inactive: 88.8%.

Regarding `CC[N+](C)(CC)Cc1cc(Cc2ccccc2)ccc1OC(=O)N(C)C`, the growth was inactive: 100%. Then `CP(=S)(Cl)N(CCCl)CCCl` (stereo not given), with inactive: 95%; and `CN(Cc1cccnc1)C(=O)COc1ccc(Cl)c(Cl)c1.O=[N+]([O-])c1cc([N+](=O)[O-])c(O)c([N+](=O)[O-])c1`, with inactive: 94.1%. In the case of `O=C1C(O)=C([N+](=O)[O-])C(=O)C(O)=C1[N+](=O)[O-]`, the growth is inactive: 106%. As to `O=[N+]([O-])N(CCN(CC(Br)([N+](=O)[O-])[N+](=O)[O-])[N+](=O)[O-])CC(Br)([N+](=O)[O-])[N+](=O)[O-]`, the growth was inactive: 98.7%. Then `O=[N+]([O-])N(CCOC(N(F)F)(N(F)F)N(F)F)CC([N+](=O)[O-])([N+](=O)[O-])[N+](=O)[O-]`, with inactive: 111%.
